The structures appear in SMILES notation. This is a selection; strong and weak results do not stand in their true shares. Active and inactive are the calls of the source.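 The calls were made as follows: active = at 10 µM dose, at least 30% inhibition, measured as corrected fluorescence normalized to stimulator and neutral control wells; inactive = the rest.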

Chains of the proteins cited; added tags and fusions are not shown.
UniProt Q96SD1, whole entry, looked up: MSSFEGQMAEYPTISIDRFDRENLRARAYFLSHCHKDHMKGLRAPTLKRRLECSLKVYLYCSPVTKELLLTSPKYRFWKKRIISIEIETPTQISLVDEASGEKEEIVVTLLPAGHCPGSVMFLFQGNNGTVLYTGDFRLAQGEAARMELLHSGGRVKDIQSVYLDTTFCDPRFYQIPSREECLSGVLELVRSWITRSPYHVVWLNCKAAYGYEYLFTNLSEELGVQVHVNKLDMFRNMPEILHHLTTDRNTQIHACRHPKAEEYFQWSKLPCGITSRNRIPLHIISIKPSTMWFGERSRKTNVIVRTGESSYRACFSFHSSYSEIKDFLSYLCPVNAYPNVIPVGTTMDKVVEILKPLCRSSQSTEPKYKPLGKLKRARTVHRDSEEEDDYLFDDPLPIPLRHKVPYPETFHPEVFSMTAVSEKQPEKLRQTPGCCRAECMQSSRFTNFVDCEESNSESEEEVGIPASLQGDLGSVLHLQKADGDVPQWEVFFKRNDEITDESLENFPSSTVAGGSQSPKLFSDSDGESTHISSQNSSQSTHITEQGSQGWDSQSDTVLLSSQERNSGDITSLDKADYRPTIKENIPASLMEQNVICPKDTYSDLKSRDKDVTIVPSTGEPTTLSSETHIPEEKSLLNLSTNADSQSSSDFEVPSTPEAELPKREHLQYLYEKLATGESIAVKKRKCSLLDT

The text below walks through data of PubChem BioAssay AID686954 (Sanford-Burnham Center for Chemical Genomics, 2013).

The experiment addresses Protein artemis (Homo sapiens) (UniProt Q96SD1). The experiment can be described thus: blockers of Artemis DNA hairpin overhang cleavage – biochemical, fluorescence intensity, FAM/BHQ-1 hairpin substrate, primary screen (AID 686954). The conditions noted are these: recombinant Artemis, quenched FAM hairpin cleavage fluorescence; at 10 µM; hits give high values.
What is called inhibition is the drop in the measured response relative to a control, in per cent. Take `O=C(COc1ccccc1)OC1CN2CCC1CC2` (stereo not given): the inhibition was inactive: -2.9%.

Take `CCN(CC)C(=S)SC(NC=O)C(Cl)(Cl)Cl` (stereo not given): the inhibition was inactive: 3.65%.

For `Cc1cccc(OCC(=O)OC2CN3CCC2CC3)c1` (stereo not given), the inhibition is inactive: 1.57%.

Regarding `Cc1ccc(OCC(=O)OC2CN3CCC2CC3)cc1` (stereo not given), the inhibition is inactive: 9.99%.

Consider `O=P(Nc1nccs1)(c1ccccc1)c1ccccc1`, for which the inhibition is inactive: 2.66%.

For `CCC(=O)N1C2C3N(C(=O)CC)C1C1N(C(=O)CC)C(C(N1C(=O)CC)N3C(=O)CC)N2C(=O)CC`, the inhibition was inactive: -1.32%.

With `CN1CCCC(OC(=O)C(c2ccccc2)c2ccccc2)C1` (stereo not given), the inhibition was inactive: -8.79%.

Turning to `CCOP(=O)(Nc1ccccc1)OCC`, the inhibition was inactive: 3.58%.

Turning to `CC(=O)N1C2C3N(C(C)=O)C1C1N(C(C)=O)C(C(N1C(C)=O)N3C(C)=O)N2C(C)=O`, the inhibition was inactive: 5.67%.

Turning to `CC1CCN(C(=O)Oc2c(Cl)cc(Cl)c3cccnc23)CC1`, the inhibition is inactive: 0.37%.
